Data on 1 compound can be found in patent publication US7875638B2, “Synthesis of epothilones, intermediates thereto, analogues and uses thereof” (Sloan-Kettering Institute for Cancer Research, priority 2002, dated 2011).

This assay deals with human mammary carcinoma MX-1 xenograft. Description: MX-1 xenograft in nude mice. Particulars: in vivo.

“And” between values parts separate entries of the source, which are not always exact repeats. Equal entries are not always repeated.

Consider `C/C1=C/CC(/C(C)=C/c2csc(C)n2)OC(=O)C[C@H](O)C(C)(C)C(=O)[C@H](C)[C@@H](O)[C@@H](C)CCC1` (some centres unmarked) [Compound 1, 12,13-desoxyepothilone B, reference compound], for which the “Mouse tumors disappeared, large MX-1 tumors (0.5 g)” value is reported as 3 of 4. Moreover, for the setting “mouse”, the “Mice relapsed on day 10 after suspension of treatment” value is given as 5/10; the “Tumor free after Q2Dx6 6 hr-iv. infusion (mice)” value was “seven out of seven and 10/10”; the “Tumor reappeared on day 10 after administration (mice)” value is given as 5/10; the “Tumor reappeared on the 8th day after stopping treatment (mice)” value was 2 out of five.
